Measured values from ChEMBL document CHEMBL1143603, “Identification and characterization of novel benzil (diphenylethane-1,2-dione) analogues as inhibitors of mammalian carboxylesterases” (J Med Chem, 2005).
pKi: −log10 of the molar value.

Target: T1, Cocaine esterase (Homo sapiens, UniProt O00748)
T1 sequence (O00748 whole entry): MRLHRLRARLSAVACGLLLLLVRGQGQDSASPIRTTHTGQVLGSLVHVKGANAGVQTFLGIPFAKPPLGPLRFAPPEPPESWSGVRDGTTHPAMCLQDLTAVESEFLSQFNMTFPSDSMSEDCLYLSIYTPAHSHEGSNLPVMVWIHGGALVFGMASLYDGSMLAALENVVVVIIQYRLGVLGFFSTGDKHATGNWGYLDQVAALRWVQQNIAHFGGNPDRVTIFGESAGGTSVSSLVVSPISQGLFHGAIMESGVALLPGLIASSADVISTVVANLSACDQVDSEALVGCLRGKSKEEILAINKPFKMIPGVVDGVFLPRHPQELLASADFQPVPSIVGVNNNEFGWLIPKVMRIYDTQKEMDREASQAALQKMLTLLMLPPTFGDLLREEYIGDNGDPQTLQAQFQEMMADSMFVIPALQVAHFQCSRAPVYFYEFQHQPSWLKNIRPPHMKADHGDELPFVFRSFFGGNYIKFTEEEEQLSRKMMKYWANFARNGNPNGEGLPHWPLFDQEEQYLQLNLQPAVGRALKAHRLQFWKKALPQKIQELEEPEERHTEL
Experiment: Inhibition constant against human intestinal carboxylesterase 2 (hiCE) using nitrophenyl acetate (o-NPA) as substrate

## CC(=O)C(=O)c1ccccc1
  pKi: 5.74
